Here are results for 1 compound from patent publication US20100028259A1, “USE OF ORGANIC CATION TRANSPORTERS FOR CANCER DIAGNOSIS AND THERAPY” (The Regents of the University of California, priority 2006, published 2010).

Data set [1] relates to MDCK-hOCT1 cells. The data set is described as follows: MTT drug sensitivity assay in MDCK-hOCT1 cells. In kind it is cell-based, canine. The note with it: disopyramide 150 μM. How it is done:
Cytotoxicity of the platinum-based compounds was measured by MTT (thiazolyl blue tetrazolium bromide) assay. Cells were seeded in 100 μl of the culture medium without any antibiotics in 96-well plates at a predetermined cell density. For HEK 293 cells, poly-D-lysine coated plates were used. […] For the OCT inhibitor studies, the inhibitors (i.e., disopyramide or cimetidine) were added to the medium at a specified concentration immediately before the addition of the platinum-based compounds. […]
(§1) Briefly, the cells were seeded in 96-well plates at a density of 5,000 cells/well for the transfected MDCK cells or 12,000 cells/well for the transfected HEK 293 cells. […] After incubation, the cell growth was determined by an MTT assay. Data are expressed as mean±SD from 3 to 6 independent experiments with each performed in quadruplicate. […]
Briefly, MDCK cells were seeded at a density of 5,000 cells/well in 96-well plates and exposed to the test compounds for 7 hours on the following day. After incubation for a total of 72 hours, the cell growth was determined by an MTT assay. The data for carboplatin was taken from Table 1 and was not determined simultaneously with the other compounds. […] Data are expressed as mean±SD from six measurements, and each measurement was performed in quadruplicate.
Background: Tetrazolium dyes change colour on reduction, which living cells bring about.

Data set [2] concerns HEK-MOCK cells. In words: MTT drug sensitivity assay in HEK-MOCK cells (control of HEK-hOCT2). The format is cell-based, human. Conditions: cimetidine 1.5 mM. How it is done:
Cytotoxicity of the platinum-based compounds was measured by MTT (thiazolyl blue tetrazolium bromide) assay. Cells were seeded in 100 μl of the culture medium without any antibiotics in 96-well plates at a predetermined cell density. For HEK 293 cells, poly-D-lysine coated plates were used. After overnight incubation, the platinum-based compounds were then added to the culture medium to give the indicated final concentrations. For the OCT inhibitor studies, the inhibitors (i.e., disopyramide or cimetidine) were added to the medium at a specified concentration immediately before the addition of the platinum-based compounds. After incubation for a specified time period, the drug-containing medium was replaced with fresh, drug-free medium and the incubation was continued for a total of 72 hours (start from the addition of platinum-based compounds). Then, the MTT assay was performed similarly as described in Alley et al., Cancer Res., 48:589-601 (1988). […]
as §1

The test system of data set [3] is HEK-hOCT2 cells. In words: MTT drug sensitivity assay in HEK-hOCT2 cells. The note with it: cimetidine 1.5 mM. The format is cell-based, human. As for the experimental part: Cytotoxicity of the platinum-based compounds was measured by MTT (thiazolyl blue tetrazolium bromide) assay. Cells were seeded in 100 μl of the culture medium without any antibiotics in 96-well plates at a predetermined cell density. For HEK 293 cells, poly-D-lysine coated plates were used. […] For the OCT inhibitor studies, the inhibitors (i.e., disopyramide or cimetidine) were added to the medium at a specified concentration immediately before the addition of the platinum-based compounds. After incubation for a specified time period, the drug-containing medium was replaced with fresh, drug-free medium and the incubation was continued for a total of 72 hours (start from the addition of platinum-based compounds). Then, the MTT assay was performed similarly as described in Alley et al., Cancer Res., 48:589-601 (1988). […] The maximal cell growth was the cell growth in the medium without any platinum-based compounds; C is the concentration of the platinum-based compound, and γ is the slope factor.
Briefly, the cells were seeded in 96-well plates at a density of 5,000 cells/well for the transfected MDCK cells or 12,000 cells/well for the transfected HEK 293 cells. The platinum-based drugs were added on the following day. […] After incubation, the cell growth was determined by an MTT assay. Data are expressed as mean±SD from 3 to 6 independent experiments with each performed in quadruplicate. […]

Data set [4] deals with MDCK-hOCT1 cells. The data set is described as follows: Cellular accumulation of platinum in MDCK-hOCT1 cells (ICP-MS). Conditions: 2-hr exposure, 3 μM. In kind it is in vitro ADME, canine. As for the experimental part: (§2) For the inhibitor studies, the incubation medium also contained disopyramide (150 μM). […] For the inhibitor studies, the incubation medium also contained cimetidine (1.5 mM). […] After drug exposure, the cells were washed with ice-cold PBS three times and harvested by scraping and centrifugation. The cell-associated platinum was determined by ICP-MS and normalized for protein content. Data are expressed as mean±SD from a single experiment performed in triplicate. Experiments were replicated for OCT1 and OCT2, and similar results were obtained.
(§3) The cellular accumulation of platinum was determined as described in Holzer et al., Mol. Pharmacol., 66:817-823 (2004) with some modifications. Briefly, the cells were grown in 100 mm×20 mm dishes in the culture medium without any antibiotics to over 90% confluence. For HEK 293 cells, poly-D-lysine coated dishes were used. For platinum accumulation, the cells were incubated in the culture medium containing the indicated concentrations of the platinum compounds at 37° C. in 5% CO2 for 2 hr unless specified. […] The platinum content was measured by inductively plasma coupled mass spectrometry (ICP-MS) in the Analytical Facility at the University of California at Santa Cruz (Santa Cruz, Calif.). […]

For data set [5], the system named is HEK-hOCT2 cells. In words: Cellular accumulation of platinum in HEK-hOCT2 cells (ICP-MS). The format is in vitro ADME, human. Conditions: 2-hr exposure. As for the experimental part:
as §2, §3

Data set [6] concerns MDCK-hOCT1 cells. The data set is described as follows: Platinum-DNA adduct formation in MDCK-hOCT1 cells. In kind it is cell-based, canine. As for the experimental part:
(§4) After incubation at 37° C. and 5% CO2 for 2 hours, the cells were washed with ice-cold PBS three times and harvested. The genomic DNA was isolated from the cells and the platinum content associated with DNA was determined by ICP-MS and normalized for DNA content. Data are expressed as mean±SD from a typical experiment performed in triplicate. Two independent experiments were conducted and similar results were obtained.
(§5) After incubation, the cells were washed with ice-cold PBS three times and harvested. Genomic DNA was isolated from the harvested cells and the DNA-associated platinum content was determined by ICP-MS and normalized for the DNA content. Data are expressed as mean±SD of three measurements.
The platinum content associated with genomic DNA was determined as described in Samimi et al., Clin. Cancer Res., 10:4661-4669 (2004) with some modifications. Briefly, the cells were grown in 100 mm×20 mm dishes in the culture medium without any antibiotics to over 90% confluence. For HEK 293 cells, poly-D-lysine coated dishes were used. Then, the cells were incubated in the culture medium containing the specified concentrations of the platinum-based compounds at 37° C. in 5% CO2 for 2 hours (or 25 min as specified). In some experiments, phosphate buffer (PB: 1.06 mM KH2PO4, 2.97 mM Na2HPO4, pH 7.4) containing 155 mM NaCl (PB—Cl buffer) or 103 mM Na2SO4 (PB—SO4 buffer) was used instead of the culture medium as specified. For the OCT inhibitor study, the incubation medium (buffer) also contained disopyramide or cimetidine). If PB—Cl or PB—SO4 buffer was used, the cells were washed with the same buffer once before drug incubation. After incubation, the cells were washed with ice-cold PBS, scraped, and pelleted. Genomic DNA was isolated from the cell pellets using the Wizard® Genomic DNA Purification Kit (Promega, Madison, Wis.) following the manufacturer's instructions. Briefly, the cells were lysed with Nuclei Lysis Solution. After RNA digestion and protein precipitation, the lysates were centrifuged and the resulting supernatant was aliquoted. The genomic DNA prepared from two different aliquots of the supernatant was used for platinum and DNA content determination, respectively. For the determination of platinum, the DNA samples were treated with 70% nitric acid at 65° C. and diluted in the same way as described above. The platinum content was analyzed using ICP-MS and the DNA content was measured by absorption spectroscopy.

The subject of data set [7] is MDCK-MOCK cells. The data set is described as follows: Platinum-DNA adduct formation in MDCK-MOCK cells. The format is cell-based, canine. Conditions: 2-hr exposure, oxaliplatin 10 μM, culture medium. As for the experimental part:
as §4, §5
(§6) The platinum content associated with genomic DNA was determined as described in Samimi et al., Clin. Cancer Res., 10:4661-4669 (2004) with some modifications. Briefly, the cells were grown in 100 mm×20 mm dishes in the culture medium without any antibiotics to over 90% confluence. For HEK 293 cells, poly-D-lysine coated dishes were used. Then, the cells were incubated in the culture medium containing the specified concentrations of the platinum-based compounds at 37° C. in 5% CO2 for 2 hours (or 25 min as specified). […] The platinum content was analyzed using ICP-MS and the DNA content was measured by absorption spectroscopy.

The test system of data set [8] is HEK-hOCT2 cells. In words: Platinum-DNA adduct formation in HEK-hOCT2 cells. In kind it is cell-based, human. The note with it: 2-hr exposure. As for the experimental part: as §4
as §6, with “specified). In some experiments, phosphate buffer (PB: 1.06 mM KH2PO4, 2.97 mM Na2HPO4, pH 7.4) containing 155 mM NaCl (PB—Cl buffer) or 103 mM Na2SO4 (PB—SO4 buffer) was used instead of the culture medium as specified. For the OCT inhibitor study, the incubation medium (buffer) also contained disopyramide or cimetidine).” for “specified).”

The test system of data set [9] is HEK-MOCK cells. In words: Platinum-DNA adduct formation in HEK-MOCK cells. The note with it: cimetidine 1.5 mM. The format is cell-based, human. As for the experimental part:
as §4
as §6, with “specified). In some experiments, phosphate buffer (PB: 1.06 mM KH2PO4, 2.97 mM Na2HPO4, pH 7.4) containing 155 mM NaCl (PB—Cl buffer) or 103 mM Na2SO4 (PB—SO4 buffer) was used instead of the culture medium as specified. For the OCT inhibitor study, the incubation medium (buffer) also contained disopyramide or cimetidine).” for “specified).”

Data set [10] concerns OCT1. The note with it: wild-type and variants G401S, 420 del, S14F, R61c, G220V, V408M, G465R.

Structures are written as SMILES.

On to `O=C1[O][Pt]2([NH][C@@H]3CCCC[C@H]3[NH]2)[O]C1=O` [oxaliplatin], for which the “fold increase of IC50 by disopyramide in MDCK-hOCT1” value in data set [1] is reported as 6.01 fold. Moreover, the “fold increase of IC50 by cimetidine in HEK-MOCK” value in [2] was 3.18 fold. For the same compound, in data set [3], the “fold increase of IC50 by cimetidine in HEK-hOCT2” value is given as 72 fold. For the same compound, the “fold higher platinum accumulation rate, MDCK-hOCT1 vs MDCK-MOCK” value in [4] is on record as 2.90 fold. Further, in data set [5], the “fold higher platinum accumulation rate, HEK-hOCT2 vs HEK-MOCK” value was 21.7 fold. The “fold higher DNA-associated platinum level, MDCK-hOCT1 vs MDCK-MOCK” value in [6] (20 μM, PB—Cl, 25 min) was found to be 2.74 fold. Moreover, the “fold greater platinum-DNA adduct level, MDCK-hOCT1 vs MDCK-MOCK” value in data set [6] (2-hr exposure, culture medium) worked out at 4.15 fold. For the same compound, in data set [6] (2-hr exposure, oxaliplatin 10 μM, culture medium), the “rb (ratio of bound platinum atoms per nucleotide) in MDCK-hOCT1” value was 1.51±0.04×10^−5. For the same compound, in data set [6] (disopyramide 150 μM), the “fold decrease of platinum-DNA adduct formation by disopyramide in MDCK-hOCT1” value is reported as 2.11 fold. Besides, the “rb (ratio of bound platinum atoms per nucleotide) in MDCK-MOCK” value in data set [7] is 3.63±0.33×10^−6. Also, the “fold higher platinum-DNA adduct level, HEK-hOCT2 vs HEK-MOCK” value in [8] turned out to be 28.8 fold. Also, the “fold decrease of platinum-DNA adduct level by cimetidine in HEK-MOCK” value in data set [9] was determined as 1.70 fold. Also, in data set [10], the “response to oxaliplatin therapy by OCT1 genotype” value was “wild-type OCT1 and V408M OCT1 provide the best response”.
